Measurements published in IntAct's records for PubMed 22854040.

B1: Optineurin (Homo sapiens), Q96CV9 (parent)
chain: MSHQPLSCLTEKEDSPSESTGNGPPHLAHPNLDTFTPEELLQQMKELLTENHQLKEAMKLNNQAMKGRFEELSAWTEKQKEERQFFEIQSKEAKERLMALSHENEKLKEELGKLKGKSERSSEDPTDDSRLPRAEAEQEKDQLRTQVVRLQAEKADLLGIVSELQLKLNSSGSSEDSFVEIRMAEGEAEGSVKEIKHSPGPTRTVSTGTALSKYRSRSADGAKNYFEHEELTVSQLLLCLREGNQKVERLEVALKEAKERVSDFEKKTSNRSEIETQTEGSTEKENDEEKGPETVGSEVEALNLQVTSLFKELQEAHTKLSEAELMKKRLQEKCQALERKNSAIPSELNEKQELVYTNKKLELQVESMLSEIKMEQAKTEDEKSKLTVLQMTHNKLLQEHNNALKTIEELTRKESEKVDRAVLKELSEKLELAEKALASKQLQMDEMKQTIAKQEEDLETMTILRAQMEVYCSDFHAERAAREKIHEEKEQLALQLAVLLKENDAFEDGGRQSLMEMQSRHGARTSDSDQQAYLVQRGAEDRDWRQQRNIPIHSCPKCGEVLPDIDTLQIHVMDCII
partner: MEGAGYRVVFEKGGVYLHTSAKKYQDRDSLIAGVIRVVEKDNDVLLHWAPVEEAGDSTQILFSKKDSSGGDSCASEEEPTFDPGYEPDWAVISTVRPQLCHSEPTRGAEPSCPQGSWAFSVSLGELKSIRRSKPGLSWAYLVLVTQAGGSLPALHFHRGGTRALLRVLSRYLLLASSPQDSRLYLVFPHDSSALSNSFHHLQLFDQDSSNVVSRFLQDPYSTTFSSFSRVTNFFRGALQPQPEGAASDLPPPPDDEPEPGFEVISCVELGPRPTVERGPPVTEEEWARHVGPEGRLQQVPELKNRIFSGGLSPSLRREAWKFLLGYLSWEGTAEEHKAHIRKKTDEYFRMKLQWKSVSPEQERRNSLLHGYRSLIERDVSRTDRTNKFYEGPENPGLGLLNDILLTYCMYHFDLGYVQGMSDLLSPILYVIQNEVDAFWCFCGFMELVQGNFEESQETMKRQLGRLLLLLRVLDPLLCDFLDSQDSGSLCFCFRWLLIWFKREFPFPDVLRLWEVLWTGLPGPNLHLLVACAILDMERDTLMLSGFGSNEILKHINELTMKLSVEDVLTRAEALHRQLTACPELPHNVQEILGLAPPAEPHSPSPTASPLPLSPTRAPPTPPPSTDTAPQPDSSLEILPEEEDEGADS
B2: Optineurin (Homo sapiens), Q96CV9 (parent)
chain: B1 chain

Variants of: B1
Details: with tbc17_human TBC1D17, Q9HA65

| Variant | effect of a mutation on the interaction |
| --- | --- |
| E50K | increasing interaction |

Variants of: B2
Details: with rab8a_human RAB8A

| Variant | effect of a mutation on the interaction |
| --- | --- |
| E50K | decreasing interaction |

Variants of: B2
Details: with rab8a_human RAB8A
Remark: another data set of the same source

| Variant | effect of a mutation on the interaction |
| --- | --- |
| E50K | disrupting interaction |
